Source: ChEMBL document CHEMBL2046359, “Novel tricyclic indeno[2,1-d]pyrimidines with dual antiangiogenic and cytotoxic activities as potent antitumor agents” (Bioorg Med Chem, 2012)

Amino acid sequences for entries named in this document (tags omitted).
UniProt P09619, whole entry: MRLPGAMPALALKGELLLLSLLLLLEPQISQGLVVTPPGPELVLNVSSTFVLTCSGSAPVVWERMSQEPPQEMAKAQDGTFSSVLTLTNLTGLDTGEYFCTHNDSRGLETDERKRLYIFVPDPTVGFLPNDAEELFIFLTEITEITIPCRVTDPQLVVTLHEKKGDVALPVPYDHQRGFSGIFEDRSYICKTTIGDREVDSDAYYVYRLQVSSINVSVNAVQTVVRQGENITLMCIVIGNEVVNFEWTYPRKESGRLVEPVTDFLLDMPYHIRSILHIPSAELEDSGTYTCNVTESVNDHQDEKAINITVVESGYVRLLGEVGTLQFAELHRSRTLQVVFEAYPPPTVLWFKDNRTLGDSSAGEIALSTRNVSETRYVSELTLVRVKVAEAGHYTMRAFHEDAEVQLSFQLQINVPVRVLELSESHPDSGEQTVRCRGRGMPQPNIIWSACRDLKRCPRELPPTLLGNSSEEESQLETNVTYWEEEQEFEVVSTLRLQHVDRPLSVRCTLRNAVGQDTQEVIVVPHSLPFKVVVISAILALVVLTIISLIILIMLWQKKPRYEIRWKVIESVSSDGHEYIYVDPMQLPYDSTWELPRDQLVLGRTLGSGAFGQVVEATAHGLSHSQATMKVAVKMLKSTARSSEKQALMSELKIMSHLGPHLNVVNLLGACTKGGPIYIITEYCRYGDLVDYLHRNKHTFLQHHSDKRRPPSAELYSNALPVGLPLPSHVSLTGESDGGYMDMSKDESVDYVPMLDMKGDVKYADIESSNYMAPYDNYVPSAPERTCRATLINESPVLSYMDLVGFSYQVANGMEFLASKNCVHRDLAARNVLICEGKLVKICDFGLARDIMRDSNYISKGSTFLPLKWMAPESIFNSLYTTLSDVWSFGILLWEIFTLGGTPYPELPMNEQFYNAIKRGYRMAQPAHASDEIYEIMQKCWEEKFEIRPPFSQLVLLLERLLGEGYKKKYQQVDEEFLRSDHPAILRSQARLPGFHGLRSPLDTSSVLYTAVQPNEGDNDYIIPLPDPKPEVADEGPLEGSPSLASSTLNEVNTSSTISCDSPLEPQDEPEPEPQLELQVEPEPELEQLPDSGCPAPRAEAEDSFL

Columns and labels:
[1] = biological target: T1, Platelet-derived growth factor receptor beta (Homo sapiens, UniProt P09619); assay: Ratio of sunitinib IC50 to compound IC50 for PDGFRbeta in human SF539 cells pretreated for 60 mins measured after 1 hr by ELISA; format: cell-based; conditions: SF-539
[2] = biological target: T1, Platelet-derived growth factor receptor beta; assay: Ratio of erlotinib IC50 to compound IC50 for PDGFRbeta in human SF539 cells pretreated for 60 mins measured after 1 hr by ELISA; format: cell-based; conditions: SF-539

Nc1nc2c(c(Nc3ccc(F)cc3)n1)-c1ccccc1C2 was tested, and the Ratio IC50 [1] was 10 and the Ratio IC50 [2] was 1.5.
